Measured values from patent US6528093B1, “Sustained-release preparation” (Takeda Chemical Industries, Ltd., priority 1992, dated 2003).

Experiment: Dissolution of peptide acetate in a dichloromethane solution of lactic acid-glycolic acid copolymer
Assay type: physicochemical
Excerpt: The particle size distribution and physiologically active peptide A content of the microcapsules were 10 to 90 μm and 2.5% (w/w), respectively.
The particle size distribution and physiologically active peptide A content of the microcapsules were 10 to 90 μm and 3.6% (w/w), respectively.

Measured: dissolution in copolymer/dichloromethane solution

NAcD2Nal-D4ClPhe-D3Pal-Ser-NMeTyr-DLys(Nic)-Leu-Lys(Nisp)-Pro-DAlaNH2 [physiologically active peptide A acetate]
could not be successfully dissolved: 400 mg in 3.6 g lactic acid/glycolic acid=50/50 copolymer, GPC Mw 58,000, end-group Mn 45,000 (RG505-05077), 33.2 g dichloromethane | 400 mg in 3.6 g lactic acid/glycolic acid=75/25 copolymer, GPC Mw 18,000, end-group Mn 30,000 (RG752-15057), 8.0 g dichloromethane | 400 mg in 3.6 g lactic acid/glycolic acid=75/25 copolymer, GPC Mw 58,000, end-group Mn 53,000 (RG755-05019), 21.2 g dichloromethane
